Data reported in patent publication EP1038864A1, “NOVEL METALLOPROTEINASE INHIBITORS” (FUJI YAKUHIN KOGYO KABUSHIKI KAISHA, priority 1997, dated 1999).

Amino acid sequences for entries named in this document (tags omitted). Residues count along the entry.
UniProt P78536, 215-824: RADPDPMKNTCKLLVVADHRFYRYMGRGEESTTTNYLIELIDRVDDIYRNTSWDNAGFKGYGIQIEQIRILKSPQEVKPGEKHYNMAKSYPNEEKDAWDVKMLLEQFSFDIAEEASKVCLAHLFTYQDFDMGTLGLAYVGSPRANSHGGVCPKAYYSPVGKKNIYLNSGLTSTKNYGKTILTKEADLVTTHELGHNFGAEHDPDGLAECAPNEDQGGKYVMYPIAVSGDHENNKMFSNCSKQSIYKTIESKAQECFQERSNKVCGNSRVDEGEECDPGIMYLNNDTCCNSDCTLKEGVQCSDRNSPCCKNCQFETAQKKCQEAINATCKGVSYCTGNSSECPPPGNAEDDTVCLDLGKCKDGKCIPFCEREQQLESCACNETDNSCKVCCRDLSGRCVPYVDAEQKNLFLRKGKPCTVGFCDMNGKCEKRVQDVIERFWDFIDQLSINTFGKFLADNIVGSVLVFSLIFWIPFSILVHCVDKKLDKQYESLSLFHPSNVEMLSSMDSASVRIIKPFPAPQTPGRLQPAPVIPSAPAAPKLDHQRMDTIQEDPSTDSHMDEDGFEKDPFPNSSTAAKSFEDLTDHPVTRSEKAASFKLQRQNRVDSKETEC

Target: TNF-α Convertase (Homo sapiens, UniProt P78536)
Experiment: Assay for inhibition of TNF-α production in LPS-stimulated, PMA-differentiated U937 cells

CNC(=O)[C@@H](NC(=O)[C@H](CC(C)C)[C@H](O)C(=O)NO)C(C)(C)C [Reference Compound No. 2, reference compound]
IC50: 3.3 µM
